The subject of one assay is IL-8. Briefly: Rhinovirus-induced IL-8 release in BEAS2B cells. The assay is classed as cell-based. Particulars: Homo sapiens, BEAS-2B, HRV-16. As to the method: (§1) Human rhinovirus RV16 was obtained from the American Type Culture Collection (Manassas, Va.). Viral stocks were generated by infecting Hela cells with HRV until 80% of the cells were cytopathic.
BEAS2B cells were infected with HRV at an MOI of 5 and incubated for 2 hr at 33° C. with gentle shaking for to promote absorption. The cells were then washed with PBS, fresh media added and the cells were incubated for a further 72 hr. The supernatant was collected for assay of IL-8 concentrations using a Duoset ELISA development kit (R&D systems, Minneapolis, Minn.). […]

A further assay deals with ICAM-1. Briefly: Rhinovirus-induced ICAM-1 expression in BEAS2B cells. Format: cell-based. The following applies: Homo sapiens, BEAS-2B, read-out: IC50 Values for HRV Stimulated Release/Expression ICAM1 (BEAS2B). Here is the method:
as §1
BEAS2B cells were infected with HRV at an MOI of 5 and incubated for 2 hr at 33° C. with gentle shaking for to promote absorption. The cells were then washed with PBS, fresh media added and the cells were incubated for a further 72 hr. The supernatant was collected for assay of IL-8 concentrations using a Duoset ELISA development kit (R&D systems, Minneapolis, Minn.).
The level of cell surface ICAM-1 expression was determined by cell-based ELISA. At 72 hr after infection, cells were fixed with 4% formaldehyde in PBS. After quenching endogenous peroxidase by adding 0.1% sodium azide and 1% hydrogen peroxide, wells were washed with wash-buffer (0.05% Tween in PBS: PBS-Tween). […] The ICAM-1 signal was detected by adding substrate and reading at 450 nm with a reference wavelength of 655 nm using a spectrophotometer. The wells were then washed with PBS-Tween and total cell numbers in each well were determined by reading absorbance at 595 nm after Crystal Violet staining and elution by 1% SDS solution. The measured OD450-655 readings were corrected for cell number by dividing with the OD595 reading in each well. […]

pIC50: −log10 of the molar value.

For `COCC(=O)Nc1cc(Oc2ccc(NC(=O)Nc3cc(C(C)(C)C)nn3-c3ccc(C)cc3)c3ccccc23)ccn1` [Reference Compound, N-(4-(4-(3-(3-tert-butyl-1-p-tolyl-1H-pyrazol-5-yl)ureido)naphthalen-1-yloxy)pyridin-2-yl)-2-methoxyacetamide, reference compound], the pIC50 was 10.19 in the assay with IL-8 and 9.43 in the assay on ICAM-1.
